Drawing on publication PMC6335623, “A computationally designed binding mode flip leads to a novel class of potent tri-vector cyclophilin inhibitors” (Chemical Science, 2018), this text covers Kd for one compound.

By UniProt entry, the sequences of proteins in these tests, tags left out. Residues count along the entry.
UniProt P62937, whole entry: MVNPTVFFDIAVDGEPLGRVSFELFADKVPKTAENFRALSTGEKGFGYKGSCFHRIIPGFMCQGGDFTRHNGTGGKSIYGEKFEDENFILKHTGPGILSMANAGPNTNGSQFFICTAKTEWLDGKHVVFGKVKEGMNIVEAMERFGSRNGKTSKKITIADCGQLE
UniProt P30405, 30-207: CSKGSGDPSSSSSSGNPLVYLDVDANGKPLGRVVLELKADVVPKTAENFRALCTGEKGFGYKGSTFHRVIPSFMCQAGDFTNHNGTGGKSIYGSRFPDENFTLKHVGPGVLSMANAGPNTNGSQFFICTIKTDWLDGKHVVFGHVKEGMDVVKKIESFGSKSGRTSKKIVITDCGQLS
UniProt P23284, 34-216: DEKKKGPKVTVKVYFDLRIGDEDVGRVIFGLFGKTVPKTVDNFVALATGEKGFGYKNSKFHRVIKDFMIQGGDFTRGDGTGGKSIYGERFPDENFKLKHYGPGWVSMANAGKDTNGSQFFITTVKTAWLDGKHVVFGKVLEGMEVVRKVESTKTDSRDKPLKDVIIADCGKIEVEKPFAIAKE

Usually Kd stands for the equilibrium constant for the complex coming apart. Lower therefore signals tighter binding.

What all share (format): binding
In one assay the target is T1, His-CypA (Homo sapiens, UniProt P62937).
T1 construct: made in house; host or cells: E. coli C41 BL21(DE3) ('C41 BL21(DH3)' [sic]); plasmid from the Edinburgh Protein Production Facility
The experiment in a line: Surface plasmon resonance (SPR) kinetic titration, BIAcore T200. The protocol:
(§1) injection protocol (Fig. S9B). […]
(§2) using the same instrument parameters was performed (Fig. S9A).
(§3) Surface Plasmon Resonance (SPR)
(§4) SPR1 – SPR equipment and reagents
(§5) SPR measurements were performed on a BIAcore T200 instrument (GE Healthcare). Ni2+- nitrilotriacetic acid (NTA) sensor chips, 1-ethyl-3-(3- diaminopropyl) carbodiimide hydrochloride (EDC) and Nhydroxysuccinimide (NHS) were purchased from GE Healthcare.
(§6) SPR2 – Immobilization and covalent stabilizations of His-Cyps
(§7) Pure His-cyclophilins were immobilized and covalently stabilized on the NTA sensor chip according to the protocol described [Wear et al., 2017, FEBS OpenBio], using 200 nM concentrations of each protein, in Running Buffer (PBS, pH 7.4; 0.05% surfactant P20, 2% v/v ethanol; 50 µM EDTA), at 30 µl min-1 with 60 second contact times on the activated NTA surfaces.
(§8) (1 picture or pasted object on this page, not shown here) […]
(§9) Buffer (PBS, pH 7.4, 50 µM mM EDTA; 0.05 % v/v surfactant P20; 2 % v/ v ethanol), were injected over the sensor surface, at 100 µl.min -1 with a 90 s contact time and a 90 s dissociation time. […] The apparent on-rate (k+) and off-rate (k-) constants and the equilibrium dissociation constant (K d) were calculated from reference corrected sensorgrams by global fitting of a 1:1 binding model, including a mass transport term, using analysis software ( v.2.02, GE Healthcare) provided with the BIAcore T200 […]

The next assay has as its target T2, His-CypD (Homo sapiens, UniProt P30405).
T2 construct: made in house; host or cells: E. coli C41 BL21(DE3) ('C41 BL21(DH3)' [sic]); plasmid from the Edinburgh Protein Production Facility
The description is as above. On the procedure: as §1, §2, §3, §4, §5, §6, §7, §8, §9

For a further assay, the target named is T3, His-CypB (Homo sapiens, UniProt P23284).
T3 construct: made in house; host or cells: E. coli C41 BL21(DE3) ('C41 BL21(DH3)' [sic]); plasmid from the Edinburgh Protein Production Facility
The experiment in a line: biochemical. On the procedure:
as §1, §2, §3, §4, §5, §6, §7, §8, §9

Turning to `Cl.Cn1cc(CN(Cc2ccc(N)cc2)C(=O)NCC(=O)N2CCCC2c2ccccc2Br)nn1` (stereo not drawn) [Compound 14], the values for the Kd at His-CypA, on His-CypD and on His-CypB were 1.7 ± 1 µM, 2.9 ± 1.2 µM and 0.3 ± 0.2 µM, respectively.
